The values that follow come from ChEMBL document CHEMBL4152230, “Discovery of N-{3-[(ethanimidoylamino)methyl]benzyl}-l-prolinamide dihydrochloride: A new potent and selective inhibitor of the inducible nitric oxide synthase as a promising agent for the therapy of malignant glioma” (Eur J Med Chem, 2018).

Sequences of proteins named here, by UniProt entry; tags and fusion partners are left off.
UniProt P29476, whole entry: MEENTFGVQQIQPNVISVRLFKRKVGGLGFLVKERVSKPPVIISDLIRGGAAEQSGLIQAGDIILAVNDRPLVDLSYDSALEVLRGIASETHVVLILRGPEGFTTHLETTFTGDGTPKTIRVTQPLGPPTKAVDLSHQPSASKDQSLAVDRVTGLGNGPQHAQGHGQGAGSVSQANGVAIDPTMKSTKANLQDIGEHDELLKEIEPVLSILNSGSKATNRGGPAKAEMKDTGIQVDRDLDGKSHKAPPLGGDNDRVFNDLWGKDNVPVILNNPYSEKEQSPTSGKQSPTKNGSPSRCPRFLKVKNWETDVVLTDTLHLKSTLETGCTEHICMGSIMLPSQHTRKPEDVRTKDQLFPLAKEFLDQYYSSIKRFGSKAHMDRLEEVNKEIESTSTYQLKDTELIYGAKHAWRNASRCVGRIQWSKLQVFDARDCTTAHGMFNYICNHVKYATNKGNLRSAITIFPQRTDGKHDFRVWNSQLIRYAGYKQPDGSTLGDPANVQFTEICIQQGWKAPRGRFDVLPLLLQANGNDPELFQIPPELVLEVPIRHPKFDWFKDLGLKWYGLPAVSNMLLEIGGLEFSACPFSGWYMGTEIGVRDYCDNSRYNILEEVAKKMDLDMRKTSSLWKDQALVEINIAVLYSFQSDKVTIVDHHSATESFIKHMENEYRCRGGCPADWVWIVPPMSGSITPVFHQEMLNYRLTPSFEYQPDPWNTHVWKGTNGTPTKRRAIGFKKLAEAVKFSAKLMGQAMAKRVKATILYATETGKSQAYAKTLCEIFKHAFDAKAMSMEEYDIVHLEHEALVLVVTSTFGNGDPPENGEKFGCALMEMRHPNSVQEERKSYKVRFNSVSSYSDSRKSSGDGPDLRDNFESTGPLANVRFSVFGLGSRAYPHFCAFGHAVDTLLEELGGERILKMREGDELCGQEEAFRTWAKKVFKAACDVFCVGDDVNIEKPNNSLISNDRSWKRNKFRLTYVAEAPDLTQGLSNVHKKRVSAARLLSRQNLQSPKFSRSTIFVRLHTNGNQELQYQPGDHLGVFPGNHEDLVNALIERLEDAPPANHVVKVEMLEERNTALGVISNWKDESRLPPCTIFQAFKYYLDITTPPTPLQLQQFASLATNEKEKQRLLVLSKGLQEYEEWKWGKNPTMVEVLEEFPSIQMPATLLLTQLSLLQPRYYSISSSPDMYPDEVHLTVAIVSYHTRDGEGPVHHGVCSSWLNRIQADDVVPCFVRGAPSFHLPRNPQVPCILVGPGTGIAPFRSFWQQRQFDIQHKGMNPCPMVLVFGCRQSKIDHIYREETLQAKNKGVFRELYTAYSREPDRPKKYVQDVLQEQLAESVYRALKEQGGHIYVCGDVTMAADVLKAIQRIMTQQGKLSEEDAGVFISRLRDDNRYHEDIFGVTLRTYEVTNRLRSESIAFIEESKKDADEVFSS

The target of one test is T1, Nitric oxide synthase 3 (Bos taurus, UniProt P29473).
T1 sequence (P29473 whole entry): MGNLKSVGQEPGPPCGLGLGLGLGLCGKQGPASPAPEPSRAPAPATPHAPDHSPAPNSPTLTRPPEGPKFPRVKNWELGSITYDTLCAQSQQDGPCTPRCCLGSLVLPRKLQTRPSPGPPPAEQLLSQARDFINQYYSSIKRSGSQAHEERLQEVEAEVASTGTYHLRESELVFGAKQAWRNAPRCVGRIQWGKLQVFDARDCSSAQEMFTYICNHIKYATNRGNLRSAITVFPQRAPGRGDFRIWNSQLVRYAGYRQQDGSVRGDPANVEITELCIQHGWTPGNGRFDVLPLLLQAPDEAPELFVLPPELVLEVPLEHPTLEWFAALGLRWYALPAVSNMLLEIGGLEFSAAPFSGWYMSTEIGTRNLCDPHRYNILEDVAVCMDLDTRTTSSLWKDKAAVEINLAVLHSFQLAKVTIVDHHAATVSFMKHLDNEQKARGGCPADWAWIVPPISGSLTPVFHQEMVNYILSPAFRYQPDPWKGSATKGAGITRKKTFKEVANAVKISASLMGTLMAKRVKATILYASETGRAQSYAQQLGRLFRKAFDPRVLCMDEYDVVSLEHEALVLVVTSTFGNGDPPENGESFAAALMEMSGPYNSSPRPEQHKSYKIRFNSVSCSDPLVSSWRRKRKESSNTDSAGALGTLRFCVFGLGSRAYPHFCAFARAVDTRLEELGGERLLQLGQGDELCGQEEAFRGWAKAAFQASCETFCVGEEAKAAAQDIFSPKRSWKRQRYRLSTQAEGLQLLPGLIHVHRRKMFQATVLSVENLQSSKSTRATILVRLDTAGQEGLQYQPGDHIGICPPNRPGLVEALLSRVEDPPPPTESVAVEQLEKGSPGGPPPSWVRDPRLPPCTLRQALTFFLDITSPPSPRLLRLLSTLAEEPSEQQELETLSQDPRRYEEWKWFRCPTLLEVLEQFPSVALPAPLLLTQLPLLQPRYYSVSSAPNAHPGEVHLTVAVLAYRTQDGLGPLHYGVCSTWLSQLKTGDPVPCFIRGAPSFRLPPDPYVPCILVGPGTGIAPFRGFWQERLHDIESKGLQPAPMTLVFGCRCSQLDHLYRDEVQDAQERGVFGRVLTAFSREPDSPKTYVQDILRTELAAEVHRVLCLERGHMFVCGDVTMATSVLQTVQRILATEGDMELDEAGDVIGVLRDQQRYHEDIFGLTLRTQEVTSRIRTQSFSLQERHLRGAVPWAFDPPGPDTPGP
Kind of test: Inhibition of recombinant bovine eNOS using [3H]L-arginine as substrate preincubated for 15 mins followed by NADPH addition measured after 20 mins in presence of FMN/FAD by liquid scintillation counting method.

For the next test, the target named is Nitric oxide synthase 1 (Rattus norvegicus, UniProt P29476). In words: Inhibition of recombinant rat nNOS using [3H]L-arginine as substrate preincubated for 15 mins followed by NADPH addition measured after 20 mins in presence of FMN/FAD by liquid scintillation counting method.

Regarding `CC(=N)NCc1cccc(CN)c1` [1400W], the half-inhibitory concentration (IC50) on Nitric oxide synthase 3 was 384 µM; at Nitric oxide synthase 1 it was 7.8 µM.

The term IC50 denotes the point on the concentration scale where inhibition reaches its midpoint.
